Measured values from ChEMBL document CHEMBL1124535, “Highly selective kappa-opioid analgesics. 2. Synthesis and structure-activity relationships of novel N-[(2-aminocyclohexyl)aryl]acetamide derivatives” (1989).

Sequences of proteins named here, by UniProt entry; tags and fusion partners are left off.
UniProt P35372, whole entry, looked up: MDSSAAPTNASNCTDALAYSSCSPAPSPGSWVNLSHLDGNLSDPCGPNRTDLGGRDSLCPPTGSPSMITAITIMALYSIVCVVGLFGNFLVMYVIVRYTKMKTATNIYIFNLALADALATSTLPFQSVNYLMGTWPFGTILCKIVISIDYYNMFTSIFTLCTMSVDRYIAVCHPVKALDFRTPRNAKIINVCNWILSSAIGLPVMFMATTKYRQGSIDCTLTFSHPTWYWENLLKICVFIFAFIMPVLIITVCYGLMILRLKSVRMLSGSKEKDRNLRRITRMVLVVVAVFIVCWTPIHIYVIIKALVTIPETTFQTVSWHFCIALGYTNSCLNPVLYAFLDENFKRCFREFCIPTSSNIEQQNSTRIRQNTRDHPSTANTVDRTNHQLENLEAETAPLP

target: Mu-type opioid receptor (Homo sapiens) (UniProt P35372); experiment: Ratio of binding affinity towards mu opioid receptor to that of kappa opioid receptor

Row | Compound | Ratio
1 | O=C(Cc1cccc2sccc12)N1CC2CCCN2[C@@H]2CCCC[C@H]21 (some centres not stated) | 0.63
2 | CN(C(=S)Cc1cccc2sccc12)[C@@H]1CCCC[C@H]1N1CCCC1 | 13
3 | CN(C(=O)Cc1cccc2sccc12)[C@@H]1CCCCC[C@H]1N1CCCC1 | 83
4 | CO[C@H]1C[C@H](N(C)C(=O)Cc2cccc3occc23)[C@@H](N2CCCC2)C[C@H]1OC | 51
5 | CN(Cc1cccc2occc12)C(=O)[C@@H]1CCCC[C@H]1N1CCCC1 | 0.55
6 | O=C(Cc1cccc2sccc12)N[C@@H]1CCCC[C@H]1N1CCCC1 | 14
7 | CN(C(=O)Cc1cccc2occc12)[C@@H]1CCCC[C@H]1N1CCC(CO)C1 (some centres not stated) | 244

target: Mu-type opioid receptor (Homo sapiens) (UniProt P35372); experiment: Ratio of binding affinity towards opioid receptor mu to that of opioid receptor kappa

Row | Compound | Ratio
8 | CN(C(=O)Cc1cccc2occc12)[C@@H]1CCCC[C@H]1N1CCC(COC(=O)CCC(=O)OCC2CCN([C@H]3CCCC[C@@H]3N(C)C(=O)Cc3cccc4occc34)C2)C1 (some centres not stated) | 4.4
9 | CN(C(=O)Cc1ccc2ccsc2c1)[C@@H]1CCCC[C@H]1N1CCCC1 | 3
10 | CN(C(=O)Cc1cccc2sccc12)[C@@H]1CCCC[C@H]1N1CCCC1 | 110
11 | CN(C(=O)Cc1cccc2sccc12)[C@@H]1CCC[C@H]1N1CCCC1 | 23
12 | CO[C@H]1C[C@H](N(C)C(=O)Cc2cccc3sccc23)[C@@H](N2CCCC2)C[C@H]1OC | 155
13 | O=C(Cc1cccc2sccc12)NCCN1CCCC1 | 0.4
14 | CN(C(=O)Cc1cccc2ccsc12)[C@@H]1CCCC[C@H]1N1CCCC1 | 39
15 | CN(CCc1cccc2sccc12)[C@@H]1CCCC[C@H]1N1CCCC1 | 20
16 | CN(C(=O)Cc1cccc2sccc12)[C@@H]1CCCC[C@H]1N1CCC(CO)C1 (some centres not stated) | 80
17 | CN(C(=O)Cc1ccc2sccc2c1)[C@@H]1CCCC[C@H]1N1CCCC1 | 5
18 | CN(C(=O)Cc1cccc2[nH]ccc12)[C@@H]1CCCC[C@H]1N1CCCC1 | 1
19 | CN(C(=O)Cc1cccc2occc12)[C@@H]1CCCC[C@H]1N1CCC(COC(=O)CCCC(=O)OCC2CCN([C@H]3CCCC[C@@H]3N(C)C(=O)Cc3cccc4occc34)C2)C1 (some centres not stated) | 4.2
20 | O=C(Cc1cccc2sccc12)O[C@@H]1CCCC[C@H]1N1CCCC1 | 13
21 | CCCCCN(CCN1CCCC1)C(=O)Cc1cccc2sccc12 | 2.7

target: Mu-type opioid receptor (Homo sapiens) (UniProt P35372); experiment: Ratio of binding affinity towards Opioid receptor mu 1 to that of kappa opioid receptor

Row | Compound | Ratio
22 | CN(C(=O)Cc1csc2ccccc12)[C@@H]1CCCC[C@H]1N1CCCC1 | 3.3
